Series [1] in a line: Half life in rat liver microsomes at 3 uM in presence of NADPH by LC-MS/MS analysis. Format: ADME, Microsome. On the technique in general: Liver microsomes are a subcellular fraction often used to study metabolism.
Series [2] can be described thus: Half life in human liver microsomes at 3 uM in presence of NADPH by LC-MS/MS analysis. Format: ADME, Microsome.

As for `N#CCC(c1ccccc1)c1c(-c2ccccc2)[nH]c2ccccc12` (racemic), the t1/2 amounted to 14.5 min in series [1] and 42.7 min in series [2].

In the case of `Cc1ccc2c(C(CC(F)(F)F)c3cccs3)c(-c3ccccc3)[nH]c2c1` (racemic), the t1/2 in series [1] is given as 17.5 min; in series [2], 108 min.

For `O=C(C(c1ccccc1)c1c(-c2ccccc2)[nH]c2ccccc12)C(F)(F)F` (racemic), the t1/2 amounted to 41.4 min in series [1] and 51.1 min in series [2].

Take `FC(F)(F)CC(c1ccccc1)c1c(-c2ccccc2)[nH]c2cc(Cl)ccc12` (racemic): the t1/2 is reported as 78 min in series [1] and 98.6 min in series [2].

Take `Cc1ccc2c(C(CC3CC3)CC(F)(F)F)c(-c3ccccc3)[nH]c2c1` (racemic): the t1/2 in series [1] is listed as 19.8 min; in series [2] it was 74.4 min.

For `FC(F)(F)CC(c1ccco1)c1c(-c2ccccc2)[nH]c2cc(Cl)ccc12` (racemic), the t1/2 in series [1] was 46.3 min; in series [2] it was 63.9 min.

For the compound `Cc1ccc2c(C(CC(F)(F)F)c3ccccc3)c(-c3ccccc3)[nH]c2c1` (racemic), the t1/2 was determined as 28.2 min in series [1] and 87.2 min in series [2].

Take `Cc1ccc2c(C(CC(F)(F)F)c3ccco3)c(-c3ccccc3)[nH]c2c1` (racemic): the figures for the t1/2 in series [1] and in series [2] were 10.3 min and 59.1 min, respectively.

On to `N#CC(C#N)C(c1ccccc1)c1c(-c2ccccc2)[nH]c2ccccc12` (racemic), for which the t1/2 in series [1] came to 14.8 min; in series [2], 26.2 min.

As for `Cc1ccc2c(C(c3ccccc3)C(C#N)C#N)c(-c3ccccc3)[nH]c2c1` (racemic), the results for the t1/2 in series [1] and in series [2] were 12.4 min and 39.3 min, respectively.

In the case of `FC(F)(F)CC(c1cccs1)c1c(-c2ccccc2)[nH]c2cc(Cl)ccc12` (racemic), the figures for the t1/2 in series [1] and in series [2] were 54.3 min and 157 min, respectively.

As for `FC(F)(F)CC(c1ccccc1)c1c(-c2ccccc2)[nH]c2ccccc12` (racemic), the t1/2 in series [1] is reported as 40.7 min; in series [2], 85.2 min.

Regarding `Cc1ccc2c(C(C(=O)C(F)(F)F)c3ccccc3)c(-c3ccccc3)[nH]c2c1` (racemic), the results for the t1/2 in series [1] and in series [2] were 24.8 min and 267 min, respectively.

`Cc1ccc2c(C(CC#N)c3ccccc3)c(-c3ccccc3)[nH]c2c1` (racemic): the t1/2 in series [1] was found to be 18.7 min; in series [2] it was 45.7 min.

The record behind these values is ChEMBL document CHEMBL4350967, “The Trifluoromethyl Group as a Bioisosteric Replacement of the Aliphatic Nitro Group in CB1 Receptor Positive Allosteric Modulators” (J Med Chem, 2019).
